Screens deposited in PubChem by Broad Institute.
Cneo AK release: Cryptococcus neoformans lysis via adenylate kinase release; 360,000 tested, 0.2% active; C. neoformans lysis, adenylate kinase release luminescence, 4 h; normalised: neutral wells 0, clomiphene wells 100; lysis activity, % at 15 µM;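 active means mean lysis activity across replicates of at least 80%, whatever share of replicates individually reach that level; inactive means mean lysis activity below 80%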
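Material: C. neoformans cells | Amount: Yeast cell density of 5 × 10^6 cells/mL | Medium: Fresh YPD growth medium | Dosing: Single dose | Times: Static 4 h at 37 °C with compound, 1 h detection | Detection: AK luminescence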
E-sel inducer: induces E-selectin expression in human endothelial cells | 260,000 tested, 0.37% active | activation, % at 7.58 µM | HUVEC E-selectin immunofluorescence imaging; normalized: neutral wells 0, TNF-alpha wells 100 | AID 686992 | P16581;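 active means mean E-selectin-positive cell signal at least 10% of the positive control, reached in at least 60% of replicates, without over 20% cell loss; inconclusive means no rule given, readout overlaps actives, possibly toxicity-flagged; inactive means the rest, including those meeting only one limit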
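assay system = HUVEC, human umbilical vein endothelial cells | input = 3,000 HUVEC seeded per well | medium = EGM-2 growth medium on 0.1% gelatin-coated wells | dosing = one compound dose added by pin transfer | signal = immunofluorescence imaging | read-out basis = % PE-positive cells | control set = TNF-alpha, DMSO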
DENV2 CPE: DENV2-induced cell death inhibition. DENV2-infected cells, cytopathic effect rescue, plate reader. CPE inhibition, % at 9.99 µM. 350,000 tested, 1.7% active; in the data active means CPE inhibition above about 20%, passing the limit was not always enough; inconclusive means no clear call, values can overlap the other calls; tested in BHK-21 cells
UUG fidelity: modulators of yeast start codon fidelity, primary screen, whole organism, S. cerevisiae, single point, plate reader; S. cerevisiae UUG-firefly luciferase reporter, luminescence/redox ratio; activity score, % at 18.7 µM; 0.13% of 350,000 active; AID 602363, 2012;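 active = replicate mean at a twofold rise or more, about +100% in these data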;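 also: firefly luciferase made from a UUG start codon reports start codon fidelity; reporter light over untreated wells divided by growth signal over untreated wells; some hits fall short of that in this replicate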
Each line names hits and unclear results; the compound was inactive in the other large screens. A selection: hits, their analogues and other compounds. The true share with any hit is near 1.8%.

O=C(NCc1nc2ccccc2[nH]1)C1=C[C@@H](c2csc3ccccc23)C[C@@H](OCCCCO)O1	none
O=C(NCc1nc2ccccc2[nH]1)C1=C[C@@H](c2coc3ccccc3c2=O)C[C@@H](OCCCCO)O1	DENV2 CPE 82.4 (no result: E-sel inducer, UUG fidelity)
CC1CN(C(=S)SCCN2Cc3ccccc3C2=O)CC(C)O1 (centres undefined)	none (no result: Cneo AK release, E-sel inducer, UUG fidelity)
O=C1c2ccccc2CN1CCSC(=S)N1CCOCC1	DENV2 CPE 21.0 (no result: E-sel inducer)
CN1CCN(C(=O)C[C@H]2CC[C@@H]3[C@H](COC[C@H](O)CN3C(=O)C3CCOCC3)O2)CC1	none
COc1ccc(C2=NOC(C(=O)NO)C2)cc1OC1CCCC1 (centres undefined)	none (no result: E-sel inducer)
CC(C)C[C@@H](CN1CCCC1CN1C(=S)NC[C@@H]1Cc1ccc(O)cc1)N1C[C@H](Cc2ccc(O)cc2)N(CC2CCCCCC2)C1=S (some centres undefined)	DENV2 CPE 41.0
CCOc1ccc(CCN2C(=S)N([C@@H](CC(C)C)CN3CCCC3CN3C(=S)NC[C@@H]3Cc3ccc(O)cc3)C[C@@H]2Cc2ccc(O)cc2)cc1 (some centres undefined)	DENV2 CPE 31.3
CCOc1ccc(CCN2C(=S)N([C@@H](CC(C)C)CN3CCCC3CN3C(=S)NC[C@@H]3Cc3ccc(O)cc3)C[C@@H]2Cc2ccccc2)cc1 (some centres undefined)	none
CCCCCCCNC(=O)C1(CC2CC(c3ccc(Cl)cc3)=NO2)CCN(C(=O)c2ccccc2)CC1 (centres undefined)	none
CCCCCCCNC(=O)C1(CC2CC(c3ccccc3)=NO2)CCN(C(=O)c2ccccc2)CC1 (centres undefined)	DENV2 CPE 23.8
Nc1c(C(=O)N/N=C/c2ccc([N+](=O)[O-])cc2)cnn1-c1ccccc1	DENV2 CPE 45.9 (no result: E-sel inducer)
O=C(N/N=C/c1ccc([N+](=O)[O-])cc1)c1cccnc1	none (no result: E-sel inducer)
CC(C)c1ccc(S(=O)(=O)N2CCN(C(=O)n3ccnc3)CC2)cc1	DENV2 CPE 31.1
O=C(Cc1ccc2c(c1)OCO2)NN=Cc1ccc([N+](=O)[O-])o1	DENV2 CPE 60.7
CCCCCC(=O)N/N=C/c1ccc([N+](=O)[O-])o1	none (no result: Cneo AK release, E-sel inducer, UUG fidelity)
C[C@@H]1CCCCO[C@H](CN(C)C(=O)NC2CCCCC2)[C@@H](C)CN([C@@H](C)CO)C(=O)c2cc(NC(=O)c3ccccc3)ccc2O1	none
C[C@@H]1CCCCO[C@H](CN(C)C(=O)NC2CCCCC2)[C@H](C)CN([C@@H](C)CO)C(=O)c2cc(NC(=O)c3ccccc3)ccc2O1	DENV2 CPE 42.6
CC(C)NC(=O)N(C)C[C@H]1OCCCC[C@@H](C)Oc2ccc(NC(=O)c3ccccc3)cc2C(=O)N([C@H](C)CO)C[C@H]1C	none (no result: UUG fidelity)
CC(C)NC(=O)N(C)C[C@@H]1OCCCC[C@@H](C)Oc2ccc(NC(=O)c3ccccc3)cc2C(=O)N([C@H](C)CO)C[C@@H]1C	Cneo AK release 110.6 (no result: UUG fidelity)
CC(C)NC(=O)N(C)C[C@H]1OCCCC[C@H](C)Oc2ccc(NC(=O)c3ccccc3)cc2C(=O)N([C@@H](C)CO)C[C@@H]1C	Cneo AK release 94.8 (no result: DENV2 CPE, UUG fidelity)
CC(C)NC(=O)N(C)C[C@@H]1OCCCC[C@@H](C)Oc2ccc(NC(=O)c3ccccc3)cc2C(=O)N([C@H](C)CO)C[C@H]1C	Cneo AK release 103.1 (no result: UUG fidelity)
COC(=O)C[C@@H]1CC[C@H]2[C@@H](COC[C@@H](O)CN2CCC(F)(F)F)O1	none (no result: UUG fidelity)
C[C@@H]1CCCCO[C@H](CN(C)C(=O)Nc2cccc3ccccc23)[C@H](C)CN([C@@H](C)CO)C(=O)c2cc(NC(=O)Nc3ccc4c(c3)OCO4)ccc2O1	none
CCOC(=O)C(NC(=O)Nc1ccc(Cl)cn1)(Oc1ccc(F)cc1)C(F)(F)F (centres undefined)	DENV2 CPE 77.6 (no result: E-sel inducer)
COc1cccc(NC(=O)N[C@@H]2C=C[C@@H](CC(=O)N3CCCCC3)O[C@H]2CO)c1	none
C[C@@H]1CCCCO[C@@H](CN(C)CC2CC2)[C@@H](C)CN([C@H](C)CO)C(=O)c2cc(NS(=O)(=O)c3cccs3)ccc2O1	DENV2 CPE inconclusive
O=C(NC1CCCCC1)N1CC(=O)N2[C@H](C1)[C@@H](c1ccc(-c3cccc(F)c3)cc1)[C@@H]2CO	none (no result: Cneo AK release, UUG fidelity)
COC(=O)N1C(=O)[C@](c2ccc(Cl)cc2)(C(C)C)N1C(=O)OC	DENV2 CPE 50.2
O=C(/C=C/c1ccc(Cl)cc1Cl)NC(=S)Nc1ccccn1	none (no result: E-sel inducer, DENV2 CPE)
Clc1ccc(C=Cc2ccccn2)c(Cl)c1	DENV2 CPE 37.5 (no result: E-sel inducer)
O=C(O)C[C@H]1C[C@H]2c3cc(NC(=O)NC4CCCCC4)ccc3O[C@H]2[C@H](CO)O1	none
C[C@H](NC(=O)[C@@H]1[C@@H](CO)[C@@H]2Cn3c(cccc3=O)[C@@H]2N1CC1CCCCC1)c1ccccc1	none (no result: Cneo AK release, UUG fidelity)
C[C@H](NC(=O)[C@H]1[C@H](CO)[C@H]2Cn3c(cccc3=O)[C@H]2N1Cc1cccnc1)c1ccccc1	none (no result: UUG fidelity)
C[C@@H](NC(=O)[C@@H]1[C@@H](CO)[C@@H]2Cn3c(cccc3=O)[C@@H]2N1CC1CCCC1)c1ccccc1	DENV2 CPE 156.1 (no result: UUG fidelity)
C[C@H](NC(=O)[C@@H]1[C@@H](CO)[C@@H]2Cn3c(cccc3=O)[C@@H]2N1Cc1cccnc1)c1ccccc1	DENV2 CPE 40.5 (no result: UUG fidelity)
C[C@@H]1CN([C@H](C)CO)C(=O)c2cc(NC(=O)Cn3cnnn3)ccc2O[C@@H]1CN(C)S(=O)(=O)c1ccc(Cl)cc1	none (no result: Cneo AK release, UUG fidelity)
COCc1cccc(-c2csc(C(O)c3ccc(F)c(F)c3)n2)c1 (centres undefined)	none
COCc1cccc(-c2csc(C(N)c3ccc(F)c(F)c3)n2)c1 (centres undefined)	DENV2 CPE 21.1
CN1CC(=O)N2[C@H]3c4ccccc4OC[C@@H]3[C@H](c3ccccc3)[C@]2(C)C1=O	none
COc1ccc2c(c1)OC[C@H]1[C@H]2N2C(=O)c3cc(Cl)ccc3NC(=O)[C@@]2(C)[C@H]1c1ccccc1	none (no result: E-sel inducer, DENV2 CPE)
COc1ccc2c(c1)OC[C@H]1[C@H]2N2C(=O)c3cc(OC)ccc3NC(=O)[C@@]2(C)[C@H]1c1ccccc1	DENV2 CPE 47.2
C[C@@]12C(=O)N(CCc3c[nH]c4ccccc34)CC(=O)N1[C@H]1c3ccccc3OC[C@@H]1[C@@H]2c1ccccc1	DENV2 CPE 53.6
C[C@@]12C(=O)N(c3ccc(F)cc3)C(=O)N1[C@@H]1c3ccccc3OC[C@@H]1[C@H]2c1ccccc1	DENV2 CPE 21.4 (no result: E-sel inducer)
CC=Cc1ccc2n(c1=O)C[C@@H]1[C@@H](CO)[C@H](C(=O)NCC3CC3)[C@H]2N1Cc1ccccc1OC (mixture of isomers)	none (no result: UUG fidelity)
Cc1cccc(N(CC(=O)NC(C)(C)C)C(=O)CNC(=O)c2cccs2)c1C	DENV2 CPE 43.5
CCCN1Cc2cccc(C(=O)Nc3ccc4c(c3)OCO4)c2C1=O	none (no result: E-sel inducer, DENV2 CPE)
CCCN1Cc2cccc(C(=O)Nc3ccc4c(c3)OCCO4)c2C1=O	DENV2 CPE 93.6
C[C@@H]1CN([C@@H](C)CO)C(=O)c2cc(-c3ccc(C(=O)N(C)C)cc3)cnc2O[C@H]1CN(C)C(=O)C1CC1	none
Cc1cccn2c(=O)c(/C=N/O)c(Nc3ccccc3F)nc12	E-sel inducer 59.3 (no result: Cneo AK release, UUG fidelity)
